Source: article PMC6759758, “Cofactor Selectivity in Methylmalonyl Coenzyme A Mutase, a Model Cobamide-Dependent Enzyme” (mBio, 2019)

Test system: SmMCM (methylmalonyl-CoA mutase from S. meliloti)
Assay type: binding, Sinorhizobium meliloti
Conditions: SmMCM Kd versus P. shermanii MCM Kd of ref 89
Method: All steps involving cobamides were conducted in the dark. The plate was centrifuged for 1 min at 3,800 rpm to level the surface of the liquid in each well. The plate was then incubated for 40 min at 30°C to allow binding, with a brief shaking step after 30 min. […] Following incubation, fluorescence emission at 340 nm (5-nm slit width) was measured upon excitation at 282 nm (5-nm slit width) using a Tecan Infinite M1000 Pro plate reader. Fluorescence, normalized to the initial value, was plotted as a function of cobamide concentration, and fitted to the following equation ([134]): F/F0=1+ΔFmax/F0([E]+[L]+Kd)−([E]+[L]+Kd)^2−4[E][L]/2[E] where F is fluorescence, F0 is initial fluorescence, [E] is total enzyme concentration, [L] is total ligand concentration, and Kd is the binding dissociation constant.

`C/C1=C2/[N-][C@H]([C@H](CC(N)=O)[C@@]2(C)CCC(=O)NC[C@@H](C)OP(=O)([O-])O[C@H]2[C@@H](O)[C@@H](n3cnc4cc(C)c(C)cc43)O[C@@H]2CO)[C@]2(C)N=C(/C(C)=C3N=C(/C=C4N=C1[C@@H](CCC(N)=O)C\4(C)C)[C@@H](CCC(N)=O)[C@]\3(C)CC(N)=O)[C@@H](CCC(N)=O)[C@]2(C)CC(N)=O.[CH2-][C@H]1O[C@@H](n2cnc3c(N)ncnc32)[C@H](O)[C@@H]1O.[Co+3]` [AdoCbl, adenosylcobalamin, reference compound] was tested, and the “Kd fold lower than the Kd reported for P. shermanii MCM” value was 6 fold.
